# Laboratory results reported in patent US20150352040A1 (priority 2010, published 2015).
# Details: in comparison to a 15 mg dose of hydrocodone
smiles,measurement,value
CN1CC[C@]23c4c5ccc(O)c4O[C@H]2C(=O)CC[C@H]3[C@H]1C5 [Hydromorphone],"Calculated Dose (mg), equianalgesic",3.375 mg
